In this assay the target is KRas G12C (Homo sapiens, UniProt P01116, C118S/C51S/C80L/G12C). The assay is described as follows: KRas G12C Modification Assay (LCMS detection of covalent adduct). The assay is classed as binding. The note with it: 5 μM concentration for 3 hours; LC/MS of intact protein; higher POC = higher degree of modification.

On to `Cc1cccc2cccc(N3CCc4c(nc(OC[C@@H]5CCCN5C)nc4N4CCN(C(=O)/C=C/c5cccnc5)[C@@H](CC#N)C4)C3)c12`, for which the “POC (normalized percent of control; degree of covalent modification of KRas G12C)” value is recorded as “C (“C”>50% POC)”.
